# Laboratory results reported in PubChem BioAssay AID796 (Columbia University Molecular Screening Center, 2007).
# This is a selection; strong and weak results do not stand in their true shares. Activity calls are given as the source filed them.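 Rule for the calls: active = inhibition above about 30% together with a positive call from visual inspection of the well image (limit read from the data); inconclusive = inhibition above a set limit but visual check negative; inactive = inhibition not above a set limit, visual check negative.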
# Experiment: inhibitors of IL-1B driven NFkB p65 nuclear import, primary screen, imaging, HUVEC, IL-1B stimulus, high-content imaging (AID 796);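 note: nuclear over cytoplasmic p65 intensity ratio measured by imaging; 0% = IL-1B stimulated DMSO wells and 100% = unstimulated DMSO wells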
# Conditions: HUVEC IL-1B NFkB p65 nuclear translocation imaging; at 2 µM; stronger effect = higher value
row,Compound,inhibition
1,CCOP(C)(=S)SCC(=O)NC(C)(CC)C(=O)O (stereo unspecified),inactive: 0.3%
2,c1nnnn1CCn1cnnn1,inactive: 4.7%
3,O=P(Nc1nccs1)(c1ccccc1)c1ccccc1,inactive: -6.8%
4,CP(=O)(Nc1ccc2c(c1)OCCO2)Oc1ccccc1 (stereo unspecified),inactive: -33.2%
5,CN(C)CCOC(=O)C(O)(c1ccccc1)C1CCCCC1 (stereo unspecified),inactive: 1%
6,O=C(OC1CN2CCC1CC2)c1cccc(Cl)c1 (stereo unspecified),inactive: 11.7%
7,CCOC(=O)NC(Sc1ccccc1)C(Cl)(Cl)Cl (stereo unspecified),inactive: 10.2%
8,CP(=O)(Nc1ccccc1)Oc1ccc(F)cc1 (stereo unspecified),inactive: -17.6%
9,COC(=O)c1cc2c(s1)N=C(c1ccccc1)N(C)P2(=O)N1CCOCC1 (stereo unspecified),inactive: 7.3%
10,CCN(CC)CCCOC(=O)C(O)(c1ccccc1)C1CCCCC1 (stereo unspecified),inactive: -10.1%
11,CCC(=O)N1C2C3N(C(=O)CC)C1C1N(C(=O)CC)C(C(N1C(=O)CC)N3C(=O)CC)N2C(=O)CC,inactive: -22.5%
12,CP(=O)(Nc1ccccc1F)Oc1ccccc1 (stereo unspecified),inactive: 9.7%
13,O=P1(Nc2nc3ccc(Cl)cc3s2)COc2ccccc2O1 (stereo unspecified),inactive: -17.7%
14,COc1ccc(OP(C)(=O)Nc2ccccn2)cc1 (stereo unspecified),inactive: -15.8%
15,CN(C)CCOC(=O)C(O)(c1ccccc1)C1CCCC1 (stereo unspecified),inactive: -5.9%
16,CN1CCCC(OC(=O)C(c2ccccc2)c2ccccc2)C1 (stereo unspecified),inactive: 7.8%
17,COc1ccccc1OP(C)(=O)Nc1ccc(C)cc1C (stereo unspecified),inactive: 2.5%
18,CP(=O)(Nc1ccccn1)Oc1ccccc1 (stereo unspecified),inactive: -2.8%
19,CCc1ccc(OP(C)(=O)O)cc1,inactive: -1%
20,CC(C)CC(=O)NC(Sc1ccc(Cl)cc1)C(Cl)(Cl)Cl (stereo unspecified),inactive: -4.3%
21,Cc1c(NP(C)(=O)Oc2ccc(C(C)C)cc2)c(=O)n(-c2ccccc2)n1C (stereo unspecified),inactive: 3.6%

row,Compound,inhibition
1,Cc1c2non([O-])c-2c(C)[n+](=O)[n+]1[O-],inactive: -16.9%
2,Oc1ccccc1CNc1ccccn1,inactive: -8.9%
3,COc1ccccc1OP(C)(=O)Nc1ccc(C)c(C)c1 (stereo unspecified),inactive: -2%
4,CCOP(=O)(Nc1ccccc1)OCC,inactive: -3.6%
5,Cc1nc2ccc3ccccc3c2o1.O=[N+]([O-])c1cc([N+](=O)[O-])c(O)c([N+](=O)[O-])c1,inactive: -41.7%
6,CP(=O)(OC12CC3CC(CC(C3)C1)C2)OC12CC3CC(CC(C3)C1)C2,inactive: -20.3%
7,COc1ccccc1OP(C)(=O)Nc1c(C)n(C)n(-c2ccccc2)c1=O (stereo unspecified),inactive: -23.1%
8,O=[N+]([O-])c1cccc2n[nH]nc12,inactive: 0.3%
9,CC(=O)N1C2C3N(C(C)=O)C1C1N(C(C)=O)C(C(N1C(C)=O)N3C(C)=O)N2C(C)=O,inactive: 0.5%
10,CCc1nc2c(n1)c1c(non1O)c1c2no[n+]1[O-],inactive: -13.3%
11,CP(=O)(Oc1ccccc1)N1CCOC1=O (stereo unspecified),inactive: 6.3%
12,CCN(CC)CC(O)COC(=O)C(O)(c1ccccc1)C1CCCCC1 (stereo unspecified),inactive: 1.4%
13,CC1CCN(C(=O)Oc2c(Cl)cc(Cl)c3cccnc23)CC1,inactive: -3.5%
14,CC(C)(C)c1ccc(OP(C)(=O)O)cc1,inactive: -3.7%
15,CP(=O)(Nc1ccc(Cl)cc1)Oc1ccc(F)cc1 (stereo unspecified),inactive: -20.9%
16,O=C(COc1ccccc1)OC1CN2CCC1CC2 (stereo unspecified),inactive: 7.2%
17,CP(=O)(NC(=O)Nc1ccccc1)Oc1ccccc1 (stereo unspecified),inactive: -2.7%
18,COP1(=S)c2c(C)nn(CCC#N)c2N=C(c2ccc(F)cc2)N1C (stereo unspecified),inactive: 5.2%
19,CP(=O)(Nc1ccccn1)Oc1ccc(Cl)cc1 (stereo unspecified),inactive: -4.3%
20,CCC(C)N(CC(C)C)C(=S)SC(NC(C)=O)C(Cl)(Cl)Cl (stereo unspecified),inactive: -4.9%
21,CP(=S)(Nn1cnnc1)Oc1ccccc1 (stereo unspecified),inactive: -8.1%

row,Compound,inhibition
1,COc1ccc(OP(C)(=O)Nc2cccc(F)c2)cc1 (stereo unspecified),inactive: -10.8%
2,CCN(CC)C(=S)SC(NC=O)C(Cl)(Cl)Cl (stereo unspecified),inactive: 0.6%
3,ClCCSc1nnc(-c2cccnc2)o1,inactive: 10.5%
4,O=C(OC1CN2CCC1CC2)C12CC3CC(CC(C3)C1)C2 (stereo unspecified),inactive: -19.3%
5,Cc1cccc(OCC(=O)OC2CN3CCC2CC3)c1 (stereo unspecified),inactive: -22.3%
6,Cc1ccc(C)c(NP(C)(=O)Oc2ccccc2)c1 (stereo unspecified),inactive: -18%
7,Cc1cc(C)cc(OP(C)(=O)Nc2ccccn2)c1 (stereo unspecified),inactive: 22.4%
8,CCOP1(=S)c2c(C)nn(CCC#N)c2N=C(c2ccccc2F)N1C (stereo unspecified),inactive: -2.5%
9,O=[N+]([O-])c1ccc2c(c1)nnn2O,inactive: -0.2%
10,CCOP1(=S)c2c(C)nn(CCC#N)c2N=C(c2ccc(F)cc2)N1C (stereo unspecified),inactive: -1%
11,Cc1nn(-c2ccccc2)c2c1P(=O)(N1CCOCC1)N(C)C(c1ccccc1)=N2 (stereo unspecified),inactive: -17.8%
12,O=P1(Nc2ccc(Br)cn2)COc2ccccc2OC1,inactive: -3.5%
13,Cc1ccc(OCC(=O)OC2CN3CCC2CC3)cc1 (stereo unspecified),inactive: -1.4%
14,O=P1(Nc2ncccn2)COc2ccccc2OC1,inactive: -5.5%
15,COc1ccccc1OP(C)(=O)Nc1c(C)cccc1C (stereo unspecified),inactive: 1.3%
16,Clc1n[nH]nc1-c1nn[nH][15n]1,inactive: 0.8%
17,O=P1(Nc2ccccn2)COc2ccccc2OC1,inactive: -15.9%
18,Cc1nc2ccc3ccccc3c2s1.O=[N+]([O-])c1cc([N+](=O)[O-])c(O)c([N+](=O)[O-])c1,inactive: 4.3%
19,CC1(CBr)Cn2c(nc3ccccc3c2=O)S1 (stereo unspecified),inactive: 7.5%
